# Test: Inhibition of P-glycoprotein assessed as efflux ratio
smiles,measurement,value
C[C@H]1CN(C(=O)c2ccc(-c3ccncc3)c(F)c2)CCN1C(=O)c1ccc2cc[nH]c2c1,Ratio,14
